Tests used:
[1] = Selectivity index, ratio of IC50 for CYP1A1 (unknown origin) to IC50 for CYP1B1 (unknown origin)
Cytochrome P450 1A1 = target: T1, Cytochrome P450 1A1 (Homo sapiens, UniProt P04798); test: Inhibition of CYP1A1 (unknown origin) expressed in HEK293-T-REx cells co-expressing POR incubated for 1 hr by resorufin dye based plate reader analysis; assay type: ADME, cell-based
T1 sequence (P04798 whole entry): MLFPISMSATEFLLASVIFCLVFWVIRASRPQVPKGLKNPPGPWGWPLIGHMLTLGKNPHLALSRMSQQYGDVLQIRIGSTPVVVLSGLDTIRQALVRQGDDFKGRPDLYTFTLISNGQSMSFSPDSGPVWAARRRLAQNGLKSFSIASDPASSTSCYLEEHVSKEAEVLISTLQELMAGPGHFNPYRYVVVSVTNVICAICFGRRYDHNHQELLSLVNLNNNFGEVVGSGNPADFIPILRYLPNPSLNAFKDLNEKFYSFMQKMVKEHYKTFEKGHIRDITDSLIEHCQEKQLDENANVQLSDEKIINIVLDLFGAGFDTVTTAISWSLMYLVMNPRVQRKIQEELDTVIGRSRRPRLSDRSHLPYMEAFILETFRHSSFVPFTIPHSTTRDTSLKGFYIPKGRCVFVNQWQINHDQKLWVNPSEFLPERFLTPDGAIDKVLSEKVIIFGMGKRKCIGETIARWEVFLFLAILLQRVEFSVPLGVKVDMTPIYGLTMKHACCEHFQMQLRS

Structure (SMILES)	Ratio IC50 [1]	IC50 (Cytochrome P450 1A1) [µM]
COc1ccc(OC)c2c1c(OC)cc1c(=O)cc(-c3cccc(F)c3)oc12	279	–
COc1ccc(-c2nc(-c3ccc(O)cc3)cs2)c(OC)c1	–	2
COc1ccc(-c2csc(-c3ccc(OC)cc3OC)n2)c(OC)c1	–	5.7
